Assay: toxicity (LD50) compared with cyclophosphamide
Conditions: multiple of the LD50 of Cyclophosphamid; no species or route printed

For `O=P1(N(CCCl)CCCl)NCC(O)CO1` (stereo not shown), the LD50 was “lo”.

— EP0072531A1, “Derivatives of cyclophosphamide, process for their preparation and their use” (dated 1983)
